ChEMBL document CHEMBL3232718, “Design, synthesis, and characterization of novel, nonquaternary reactivators of GF-inhibited human acetylcholinesterase” (2014)

Sequences of proteins named here, by UniProt entry; tags and fusion partners are left off. A change or cut given only in a name is not applied to a line headed by its entry.
UniProt P22303: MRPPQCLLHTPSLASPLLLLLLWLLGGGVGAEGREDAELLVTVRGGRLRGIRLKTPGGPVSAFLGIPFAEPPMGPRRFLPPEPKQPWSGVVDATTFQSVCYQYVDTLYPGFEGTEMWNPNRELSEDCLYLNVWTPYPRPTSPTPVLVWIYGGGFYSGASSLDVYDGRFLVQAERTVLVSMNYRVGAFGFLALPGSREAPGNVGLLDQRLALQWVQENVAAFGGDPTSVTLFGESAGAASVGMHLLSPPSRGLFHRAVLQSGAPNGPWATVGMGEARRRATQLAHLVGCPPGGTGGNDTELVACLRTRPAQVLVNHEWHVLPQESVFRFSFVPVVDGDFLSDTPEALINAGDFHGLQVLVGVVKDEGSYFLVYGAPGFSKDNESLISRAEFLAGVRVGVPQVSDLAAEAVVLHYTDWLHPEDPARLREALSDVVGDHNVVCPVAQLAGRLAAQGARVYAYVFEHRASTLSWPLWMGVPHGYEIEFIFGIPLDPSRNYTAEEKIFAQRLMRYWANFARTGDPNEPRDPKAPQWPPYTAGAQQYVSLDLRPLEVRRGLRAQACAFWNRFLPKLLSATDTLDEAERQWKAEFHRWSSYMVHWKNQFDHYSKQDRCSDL

Assays:
[1] = molecular target: Acetylcholinesterase (Homo sapiens) (UniProt P22303); assay: Reactivation of cyclosarin-inhibited human AChE using acetylthiocholine as substrate at 20 uM after 4 hrs by robotic spectrophotometric assay; parameters: scale not given: the % may be the effect or the level left
[2] = molecular target: Acetylcholinesterase (Homo sapiens) (UniProt P22303); assay: Inhibition of human AChE using acetylthiocholine as substrate assessed as residual activity at 20 uM after 4 hrs by robotic spectrophotometric assay relative to control

| Structure (SMILES) | Activity [1] [%] | Activity [2] [%] |
| --- | --- | --- |
| CC(=O)/C=N/O | 6.1 |  |
| O/N=C/c1cnc(OCC2CCN(Cc3ccccc3)CC2)nc1 | 2.2 | 90.8 |
| O/N=C/c1ccc(OCC2CCN(Cc3ccccc3)CC2)nc1 | 0.42 | 100 |
| O=C(/C=N/O)NCCCCNc1c2c(nc3ccccc13)CCCC2 | 34.7 | 7 |
| N#C/C(=N\O)C(=O)NC1CCN(Cc2ccccc2)CC1 | 0.06 | 97.3 |
| O=C(/C=N/O)c1ccc(OCC2CCN(Cc3cccc(Cl)c3)CC2)nc1 | 20.2 | 93.7 |
| O=C(/C=N/O)c1ccc(NCC2CCN(Cc3ccccc3)CC2)nc1 | 23.5 | 97.3 |
| O=C(/C=N/O)c1ccc(OCC2CCCCN2Cc2ccccc2)nc1 (centres undefined) | 35.2 | 96.5 |
| COc1ccc(CN2CCCC(COc3ccc(C(=O)/C=N/O)cn3)C2)cc1OC (centres undefined) | 40 | 95.3 |
| N#Cc1ccc(CN2CCC(COc3ccc(C(=O)/C=N/O)cn3)CC2)cc1 | 21.6 | 98.8 |
| O=C(/C=N/O)NCCCNc1c2c(nc3ccccc13)CCCC2 | 30.4 | 23.7 |
| COc1ccc(CN2CCC(CNC(=O)/C(=N/O)C(C)=O)CC2)cc1OC | 24.5 | 92.8 |
| COc1ccc(CN2CCC(COc3ccc(C(=O)/C=N/O)cn3)CC2)cc1OC | 26.6 | 95.3 |
| O=C(/C=N/O)NC1CCN(Cc2ccccc2)CC1 | 7.6 |  |
| COc1ccc(CN2CCCCC2COc2ccc(C(=O)/C=N/O)cn2)cc1OC (centres undefined) | 71.3 | 91.1 |
| COc1cc2c(cc1OC)CN(CCCNC(=O)/C(=N/O)C(C)=O)CC2 | 29.8 | 97.3 |

| Structure (SMILES) | Activity [1] [%] | Activity [2] [%] |
| --- | --- | --- |
| CC(=O)/C(=N\O)C(=O)NCC1CCN(Cc2ccccc2)CC1 | 23.9 |  |
| COc1cc2c(cc1OC)C(c1ccccc1)N(CCCNC(=O)/C(=N/O)C(C)=O)CC2 (centres undefined) | 36.8 | 99.2 |
| N#C/C(=N\O)C(=O)NCC1CCN(Cc2ccccc2)CC1 | 4.8 | 99.9 |
| O=C(/C=N/O)c1cccc(OCC2CCN(Cc3ccccc3)CC2)n1 | 8.52 | 85.8 |
| O=C(/C=N/O)NCC1CCN(Cc2ccccc2)CC1 | 7.7 | 99.4 |
| O=C(/C=N/O)c1ccc(OCC2CCN(Cc3ccc(F)c(F)c3)CC2)nc1 | 34.7 | 88.8 |
| O=C(/C=N/O)c1cccnc1OCC1CCN(Cc2ccccc2)CC1 | 50.1 | 90.4 |
| O=C(/C=N/O)c1ccc(OCC2CCN(Cc3ccccc3)CC2)nc1 | 37.8 | 60.9 |
| CC(=O)/C(=N\O)C(=O)NC1CCN(Cc2ccccc2)CC1 | 12.8 | 92.1 |
| COc1cc2c(cc1OC)C(c1ccccc1)N(CCCNC(=O)/C=N/O)CC2 (centres undefined) | 2.9 | 92.5 |
| O=C(/C=N/O)c1ccnc(OCC2CCN(Cc3ccccc3)CC2)c1 | 19.4 | 89 |
| O=C(/C=N/O)c1ccc(OCC2CCN(Cc3ccccc3)C2)nc1 (centres undefined) | 29.3 | 85.7 |
| COc1ccc(CN2CCC(COc3ccc(C(=O)/C=N/O)cn3)C2)cc1OC (centres undefined) | 24.9 | 98.9 |
| O=C(/C=N/O)c1cnc(OCC2CCN(Cc3ccccc3)CC2)nc1 | 32.4 | 73.4 |
| N#C/C(=N\O)C(=O)NCCCNc1c2c(nc3ccccc13)CCCC2 | 100 | 6.97 |
